Experimental data from US10487086B2.

Chains of the proteins cited; added tags and fusions are not shown. Residues count along the entry.
UniProt P03951, 388-625 limits assumed: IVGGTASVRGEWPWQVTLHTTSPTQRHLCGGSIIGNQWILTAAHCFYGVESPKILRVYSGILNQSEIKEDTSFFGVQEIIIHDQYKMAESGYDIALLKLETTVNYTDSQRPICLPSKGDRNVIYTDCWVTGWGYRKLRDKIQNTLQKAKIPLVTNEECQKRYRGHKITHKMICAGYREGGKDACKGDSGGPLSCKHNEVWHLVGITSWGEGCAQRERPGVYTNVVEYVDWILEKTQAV
UniProt P03951, 19-387 partner limits assumed: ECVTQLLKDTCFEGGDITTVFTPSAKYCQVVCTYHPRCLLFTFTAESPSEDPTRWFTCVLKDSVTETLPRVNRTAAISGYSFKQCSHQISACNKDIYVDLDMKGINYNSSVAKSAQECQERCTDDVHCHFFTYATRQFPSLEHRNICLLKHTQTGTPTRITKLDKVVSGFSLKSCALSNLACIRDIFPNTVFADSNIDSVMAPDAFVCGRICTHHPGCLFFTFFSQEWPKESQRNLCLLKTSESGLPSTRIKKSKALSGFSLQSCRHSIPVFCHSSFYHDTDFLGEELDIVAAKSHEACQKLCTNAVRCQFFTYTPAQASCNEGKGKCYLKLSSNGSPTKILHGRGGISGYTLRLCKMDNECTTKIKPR

Target: purified human Factor XIa (Homo sapiens (Human), UniProt P03951)
Experiment: Factor XIa enzyme inhibition assay (chromogenic substrate S-2366)
Details: read-out: Factor XIa Ki, substrate S-2366, pH 7.4

## COC(=O)Nc1ccc2c(c1)NC(=O)C(C)CCC[C@H](NC(=O)c1c(F)cc3c(cnn3C)c1F)c1nc-2c(Cl)[nH]1 (stereo partly shown)
  Ki: 6.6 nM
